Reference: patent US20070021439A1, “Methods of reducing risk of infection from pathogens with soluble amide and ester pyrazinoylguanidine sodium channel blockers” (Parion Sciences, Inc., priority 2005, published 2007)
Where a name gives a salt, the structure may show the parent alone.

Assay: Solubility of compounds in sodium chloride solution
Type: physicochemical
Conditions: ambient temperature, tested form: bis(methanesulfonate)
Procedure: Compound solubility was measured in water, 0.12 or 0.9% sodium chloride solution at ambient temperature for up to 10 days. Using a UV/Visable Spectrophotometer and applying Beer's Law with the calculated extinction coefficient of amiloride (18.6 mM, absorbance values at 362 nm taken from D. Mazzo 1986) the free base concentration in solution was calculated at specified time points. All samples were stored for the duration of the experiment in a single/closure system consisting of glass vials with a stopper-top closure. The vials were maintained at ambient temperature, in the dark, and in the upright position. Compound stability was measured using reverse phase high performance liquid chromatography on the final filtered pulled sample (day 10).
Table 2 gives the solubility in saline of selected amide bis methane sulfonic acid salts and compares them to the mono addition methane sulfonic acid salt of PSA 9714.

CN(C)CCNC(=O)COc1ccc(CCCCNC(=N)NC(=O)c2nc(Cl)c(N)nc2N)cc1
S1 = Solubility in 0.12% NaCl Solution: >5000 µg/mL

N=C(NCCCCc1ccc(OCC(=O)NCCN(CCO)CCO)cc1)NC(=O)c1nc(Cl)c(N)nc1N
S1 = Solubility in 0.12% NaCl Solution: >5000 µg/mL | S2 = Solubility in 0.9% NaCl Solution (normal Saline): >5000 µg/mL

CN(C)CCCNC(=O)COc1ccc(CCCCNC(=N)NC(=O)c2nc(Cl)c(N)nc2N)cc1 (as salt: methanesulfonate)
S1 = Solubility in 0.12% NaCl Solution: >5000 µg/mL

CN(C)CCCCNC(=O)COc1ccc(CCCCNC(=N)NC(=O)c2nc(Cl)c(N)nc2N)cc1
S1 = Solubility in 0.12% NaCl Solution: >5000 µg/mL | S2 = Solubility in 0.9% NaCl Solution (normal Saline): >5000 µg/mL
